By UniProt entry, the sequences of proteins in these tests, tags left out. Residues count along the entry.
UniProt P51449, 269-508 limits assumed: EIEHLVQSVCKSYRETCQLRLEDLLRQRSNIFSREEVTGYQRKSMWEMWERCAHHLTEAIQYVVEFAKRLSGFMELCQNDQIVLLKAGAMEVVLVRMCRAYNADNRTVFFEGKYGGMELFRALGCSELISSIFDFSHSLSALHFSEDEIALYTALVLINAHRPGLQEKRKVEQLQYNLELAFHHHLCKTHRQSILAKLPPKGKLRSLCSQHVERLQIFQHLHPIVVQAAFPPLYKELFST

According to patent publication US20190144375A1, “NOVEL CARBOCYCLIC COMPOUNDS AS ROR GAMMA MODULATORS” (Glenmark Pharmaceuticals S.A., priority 2015, published 2019):

Target: GST-tagged ROR gamma ligand binding domain (LBD) (Homo sapiens, UniProt P51449)
Assay: TR-FRET assay for ROR gamma (LanthaScreen, Fluorescein-D22 co-activator peptide recruitment)
Source text: The compounds described herein were screened for ROR gamma modulator activity using the TR-FRET assay (LanthaScreen™ available from Invitrogen of Carlsbad, Calif.) as described in JBC 2011, 286, 26: 22707-10; and Drug Metabolism and Disposition 2009, 37, 10: 2069-78.
The assay is based on the principle that binding of the agonist to the ROR gamma causes a conformational change around helix 12 in the ligand binding domain, resulting in higher affinity for the co-activator peptide. ROR gamma being constitutively active, the Fluorescein-D22 co-activator peptide used in the assay is recruited in the absence of a ligand. Binding of the co-activator peptide, causes an increase in the TR-FRET signal while binding of an antagonist decreases the recruitment of the co-activator peptide, causing a decrease in the TR-FRET signal compared to control with no compound. The assay was performed using a two-step procedure, pre-incubation step with the compound followed by the detection step on addition of the anti-GST tagged terbium (Tb) and fluorescein tagged fluorophores as the acceptor.
Test compounds or reference compounds such as T0901317 (Calbiochem) were dissolved in dimethylsulfoxide (DMSO) to prepare 10.0 mM stock solutions and diluted to the desired concentration. The final concentration of DMSO in the reaction was 4% (v/v). The assay mixture was prepared by mixing 10 nM of the GST-tagged ROR gamma ligand binding domain (LBD) in the assay buffer containing 25 mM HEPES, 100 mM NaCl, 5 mM DTT and 0.01% BSA with or without the desired concentration of the compound. The reaction was incubated at 22° C. for 1 hour. […] After shaking for 5 minutes the reaction was further incubated for 1 hour at room temperature and read […] on an Infinite F500 reader as per the kit instructions (Invitrogen). The inhibition of test compound was calculated based on the TR-FRET ratio of 520/495. The activity was calculated as a percent of control reaction. IC50 values were calculated from dose response curve by nonlinear regression analysis using GraphPad Prism software. […]

Cc1cc(C)cc(N(C)C(=O)c2ccc(NC(=O)Cc3ccc(C(F)(F)[C@H](C)O)cc3)cc2)c1
% Inhibition at 1 μM (1 μM compound, TR-FRET ratio 520/495): 89.44% | % Inhibition at 10 μM (10 μM compound, TR-FRET ratio 520/495): 93.27% | IC50 (read-out: IC50 value, dose response curve, class symbols): < 50 nM
